{
  "sequences": {"note": "Protein sequences, listed by entry. Tags and fused reporters are not part of them. Lines headed by an entry give the natural chain unless they say otherwise; changes in a name come on top.", "UniProt P25779": "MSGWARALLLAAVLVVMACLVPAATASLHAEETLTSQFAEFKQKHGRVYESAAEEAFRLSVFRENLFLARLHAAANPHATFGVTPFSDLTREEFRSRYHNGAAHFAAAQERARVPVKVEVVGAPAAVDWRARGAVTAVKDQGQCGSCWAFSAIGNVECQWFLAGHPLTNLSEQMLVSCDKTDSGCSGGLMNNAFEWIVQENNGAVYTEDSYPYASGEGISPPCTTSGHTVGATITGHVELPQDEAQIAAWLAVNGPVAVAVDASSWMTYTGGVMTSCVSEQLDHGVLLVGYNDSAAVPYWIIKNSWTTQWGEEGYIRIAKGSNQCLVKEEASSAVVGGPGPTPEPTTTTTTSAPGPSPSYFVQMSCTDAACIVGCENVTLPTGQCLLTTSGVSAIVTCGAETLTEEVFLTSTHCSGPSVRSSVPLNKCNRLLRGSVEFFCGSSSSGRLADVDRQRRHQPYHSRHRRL"},
  "source": "ChEMBL document CHEMBL1144459",
  "about": "“Discovery of potent thiosemicarbazone inhibitors of rhodesain and cruzain” (Bioorg Med Chem Lett, 2005)",
  "target": "Cruzipain (Trypanosoma cruzi, UniProt P25779)",
  "assay": "Inhibitory concentration against cruzain of Trypanosoma cruzi",
  "data": [
    {"compound": "CC/C(=N\\NC(N)=S)c1cccc(Br)c1", "values": [
      {"measurement": "IC50", "result": 310, "unit": "nM"}
    ]}
  ]
}
